# From PubChem BioAssay AID720495 (Broad Institute, 2013)
# Protein sequences, listed by entry. Tags and fused reporters are not part of them.
# UniProt P42568, whole entry: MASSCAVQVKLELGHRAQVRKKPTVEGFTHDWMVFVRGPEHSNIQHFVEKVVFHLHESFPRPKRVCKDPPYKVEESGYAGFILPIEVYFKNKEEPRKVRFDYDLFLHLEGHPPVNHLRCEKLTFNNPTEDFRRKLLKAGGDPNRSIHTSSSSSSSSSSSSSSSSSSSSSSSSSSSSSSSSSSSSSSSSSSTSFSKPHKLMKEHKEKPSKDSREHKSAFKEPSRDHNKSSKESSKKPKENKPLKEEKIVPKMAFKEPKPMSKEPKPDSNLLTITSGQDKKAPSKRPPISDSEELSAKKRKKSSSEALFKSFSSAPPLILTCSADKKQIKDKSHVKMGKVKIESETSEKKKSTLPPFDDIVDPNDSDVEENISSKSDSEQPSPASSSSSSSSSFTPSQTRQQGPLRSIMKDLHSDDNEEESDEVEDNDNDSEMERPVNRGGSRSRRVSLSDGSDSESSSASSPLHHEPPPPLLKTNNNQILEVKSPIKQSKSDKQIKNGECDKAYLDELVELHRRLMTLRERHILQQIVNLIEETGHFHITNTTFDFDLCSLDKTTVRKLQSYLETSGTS
# The entries are a selection whose mix differs from that of the whole data set. Results filed as inconclusive are left out. The source made the active and inactive calls. How the calls were made is not given here.
# Molecular target: Protein AF-9 (Homo sapiens) (UniProt P42568)
# Assay: AF9 binding to AF4 blockers, potency – biochemical, cherry-picked samples, plate reader, dose response (AID 720495)
# Conditions: biochemical protein-protein interaction assay, at 10 µM (top of the series)
smiles,measurement,value
CCC(c1nnnn1C1CCCCC1)N1CCC(n2c(=O)[nH]c3ccccc32)CC1 (stereo unspecified),"activity change, negative = inhibition",inactive
